Data from US20200147215A1, “DRUG CONJUGATES WITH PHOTOCLEAVABLE SOLUBILITY MODULATORS” (priority 2017, published 2020).

Experiments:
[1] = Photolysis of G2PEA-insulin in PBS pH 7.2, insulin released into supernatant; assay type: physicochemical
Excerpt: The drug conjugate was then examined in aqueous buffer (phosphate buffered saline or PBS) at pH 7.2.

[2] = Quantitative solubility of G2PEA-insulin and insulin in buffer at pH 7.2 and pH 5.4; conditions: Table 8, pH 5.4
[3] = Visual solubility of G2PEA-insulin at pH 4 versus pH ~7; assay type: physicochemical

What does the source list for “G2PEA-insulin drug conjugate: drug conjugate of insulin and glutamic acid condensed with two 1-(2-Aminoethyl)pyrrolidine moieties (G2PEA), photocleavable link”?
solubility in words [1]: largely insoluble; Solubility [2]: 112.9 ± 17.8 µM; appearance of solution ([3]; acidic pH 4): completely clear; appearance of solution ([3]; pH adjusted to ~7 with buffer): the solution goes cloudy
